The target in the experiment is Type 1 fimbrin D-mannose specific adhesin (Escherichia coli K-12) (UniProt P08191). The experiment can be described thus: Relative inhibitory potency, ratio of methyl alpha-D-mannose Kd to compound Kd for binding affinity to C-terminal His-tagged truncated Escherichia coli FimH by SPR analysis. The note with it: K12.

The chains behind the UniProt entries cited, without tags or fusion partners.
UniProt P08191, whole entry: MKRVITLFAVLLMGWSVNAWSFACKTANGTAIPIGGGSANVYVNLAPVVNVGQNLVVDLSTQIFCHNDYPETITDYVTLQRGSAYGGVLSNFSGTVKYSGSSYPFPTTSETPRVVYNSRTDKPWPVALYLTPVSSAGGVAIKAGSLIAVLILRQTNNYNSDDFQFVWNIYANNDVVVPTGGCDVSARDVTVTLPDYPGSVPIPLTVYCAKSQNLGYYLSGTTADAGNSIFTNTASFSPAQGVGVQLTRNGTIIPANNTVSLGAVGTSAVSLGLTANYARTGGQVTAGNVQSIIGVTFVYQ

As for `CCCCCCCO[C@H]1O[C@H](CO)[C@@H](O)[C@H](O)[C@@H]1O`, the Ratio was 440.

Source of the values: ChEMBL document CHEMBL5137057, “Small Carbohydrate Derivatives as Potent Antibiofilm Agents” (J Med Chem, 2022).
